In PubChem BioAssay AID624263 (National Center for Advancing Translational Sciences (NCATS), 2012):
This is a selection; strong and weak results do not stand in their true shares. Some structures show a salt or complex split into parts, the way the source records it. Active and inactive are the calls of the source. Calls follow the shape of the dose curve; as a rule, active = well fitted activation curve with a large enough effect; inconclusive = small, poorly fitted or top-dose-only effect; inactive = flat fitted curve, though single readings scatter; cell line not stated here.

Assay: A Quantitative High throughput Screen to Identify Chemical Modulators of PINK1 Expression; also: % of control where 0% means no effect; nearly all actives have a fitted effect of over 65% in size
Conditions: PINK1 immunofluorescence, high-content cytometry, 24 h; at 76.6 µM (top of the series) unless noted

SMILES	activation (PINK1 increase)
O=[N+]([O-])c1cc([N+](=O)[O-])c(NCC2CCS(=O)(=O)C2)c([N+](=O)[O-])c1 (stereo unspecified)	inactive: -1.39%
CCCOc1cccc(C(=O)NCC2(N3CCOCC3)CCCCC2)c1	inactive: 0.179%
O=C(NCC1(N2CCCCC2)CCCCC1)c1cccc(C(F)(F)F)c1	inactive: 2.3%
COc1cc(C(=O)NCC2(N3CCCCC3)CCCCC2)ccc1OC(F)F	inactive: 4.46%
O=C(NCC1(N2CCOCC2)CCCCC1)c1cc(=O)[nH]c2ccccc12	inactive: -1.52%
CN1CCN(CCOC(=O)C(O)(c2ccccc2)c2ccccc2)CC1	inactive: -2.41%
CC(C)c1ccc(C(=O)NCC2(N3CCOCC3)CCCCC2)cc1	inactive: -1.57%
COc1ccc(NC2CCN(C(=O)OC(C)(C)C)CC2)cc1	inactive: 1.58%
CCCCn1nnnc1C(c1cccc2ccccc12)N1CCC(n2c(=O)[nH]c3ccccc32)CC1 (stereo unspecified)	inactive: 1.86%
CCCCn1nnnc1C(c1ccccc1OC(F)(F)F)N1CCC(n2c(=O)[nH]c3ccccc32)CC1 (stereo unspecified)	inactive: 3.77%
CC(C)c1ccc(NC2CCN(C(=O)OC(C)(C)C)CC2)cc1	inactive: 14.3%
O=[N+]([O-])c1cc([N+](=O)[O-])c(OC2CCCCC2O)c([N+](=O)[O-])c1 (stereo unspecified)	inactive: 0.657%
CN(C)c1cccc(C(=O)NCC2(N3CCCCC3)CCCCC2)c1	inactive: 1.08%
COc1ccc(CN(CCCl)CCCl)cc1Cl	inactive: 0.285%
CCC(c1nnnn1C(C)(C)C)N1CCC(n2c(=O)[nH]c3ccccc32)CC1 (stereo unspecified)	inactive: 4.63%
O=C(NCC1(N2CCOCC2)CCCCC1)c1cc(F)c(F)cc1Cl	inactive: 2.12%
COc1cc(OC)c(C(=O)NCC2(N(C)C)CCCCC2)cc1OC	inactive: -0.0909%
CCCCn1nnnc1C(c1ccnc2ccccc12)N1CCC(n2c(=O)[nH]c3ccccc32)CC1 (stereo unspecified)	inactive: -0.239%
O=C(OC1CN2CCC1CC2)c1ccc([N+](=O)[O-])cc1 (stereo unspecified)	inactive: 0.453%
CN1CCC(Nc2cccc(F)c2)CC1	inactive: 2.69%
COc1ccc2c(c1O)-c1c(O)c(OC)cc3c1[C@H](C2)[N+](C)(C)CC3.O=[N+]([O-])c1cc([N+](=O)[O-])c([O-])c([N+](=O)[O-])c1[O-]	inactive: -0.442%
O=C(NCC1(N2CCCCC2)CCCCC1)c1cncc(Br)c1	inactive: -1.42%
COc1ccc(C(c2nnnn2C2CCCC2)N2CCC(n3c(=O)[nH]c4ccccc43)CC2)cc1 (stereo unspecified)	inactive: -0.263%

SMILES	activation (PINK1 increase)
O=C(NCC1(N2CCOCC2)CCCCC1)c1ccccc1Br	inactive: -1.06%
CCCOc1ccc(C(=O)NCC2(N(C)C)CCCCC2)cc1OC	inactive: 0.657%
CCCCOc1ccccc1C(=O)NCC1(N2CCOCC2)CCCCC1	inactive: -0.196%
Cc1ccc(C(=O)NCC2(N(C)C)CCCCC2)o1	inactive: 1.8%
COc1cc(C(=O)NCC2(N3CCOCC3)CCCCC2)cc(OC)c1C	inactive: 0.545%
CCCCn1nnnc1C(c1ccccc1)N1CCC(n2c(=O)[nH]c3ccccc32)CC1 (stereo unspecified)	inactive: -1.06%
O=C(NCC1(N2CCOCC2)CCCCC1)c1cc(Br)ccc1Cl	inactive: -0.252%
O=Cc1ccc(N(CCCl)CCCl)cc1	inactive: 1.16%
O=c1[nH]c2ccccc2n1C1CCN(C(c2cccs2)c2nnnn2C2CCCCC2)CC1 (stereo unspecified)	inactive: 0.404%
O=c1[nH]c2ccccc2n1C1CCN(C(c2ccnc3ccccc23)c2nnnn2C2CCCC2)CC1 (stereo unspecified)	inactive: -0.872%
COc1ccc(C(=O)NCC2(N3CCOCC3)CCCCC2)cc1OC	inactive: -1.36%
CCOC(=O)N1CCC(Nc2ccc(C)cc2)CC1	inactive: -0.811%
COc1cccc(C(c2nnnn2C(C)(C)C)N2CCC(n3c(=O)[nH]c4ccccc43)CC2)c1OC (stereo unspecified)	inactive: 3.62%
N/C(=N\O)c1c(N)no[n+]1[O-]	inactive: 0.945%
O=c1[nH]c2ccccc2n1C1CCN(C(c2cccs2)c2nnnn2C2CCCC2)CC1 (stereo unspecified)	inactive: 0.0509%
O=C(O)c1cccc(Nc2c([N+](=O)[O-])cc([N+](=O)[O-])cc2[N+](=O)[O-])c1	inactive: 1.4%
CCc1cc(C(=O)NCC2(N3CCCCC3)CCCCC2)sc1C	inactive: 5.33%
O=C(OC1CN2CCC1CC2)C1c2ccccc2C=Cc2ccccc21 (stereo unspecified)	inactive: -1.05%
CCCCn1nnnc1C(c1cccc(OC)c1OC)N1CCC(n2c(=O)[nH]c3ccccc32)CC1 (stereo unspecified)	inactive: -1.33%
N#Cc1ccc(C(=O)NCC2(N3CCCCC3)CCCCC2)cc1	inactive: 1.47%
O=C(NCC1(N2CCOCC2)CCCCC1)c1ccccc1[N+](=O)[O-]	inactive: 2.33%
CC(C)(C)OC(=O)N1CCC(N(C(=O)c2ccccc2)c2ccc(Cl)cc2)CC1	inactive: 6.7%
O=C(NCC1(N2CCOCC2)CCCCC1)c1ccc([N+](=O)[O-])cc1	inactive: 1.77%
